## Measured affinities in a library of Ab-91 heavy chain variants

From the AlphaSeq antibody data of Engelhart et al. 2022 (doi:10.1038/s41597-022-01779-4), copy in the FLAb collection.

All variants were tested on one target, the spike HR2 peptide PDVDLGDISGINAS (SARS-CoV-2).

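Variants in AAYL51 differ from the parent at up to three CDR positions; double and triple changes were sampled at random. In AlphaSeq, yeast of one mating type display the scFv and yeast of the other type display the target. Pairs that bind mate more often; barcode pairs of the diploids are counted by sequencing. Scores were corrected for input abundance and mapped to Kd with protein pairs of known affinity run in the same pool. There are three technical replicates.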

Parent: Ab-91, a human scFv built as VL, a (GGGGS)3 linker, VH. Only the CDRs of the heavy chain vary.
VL: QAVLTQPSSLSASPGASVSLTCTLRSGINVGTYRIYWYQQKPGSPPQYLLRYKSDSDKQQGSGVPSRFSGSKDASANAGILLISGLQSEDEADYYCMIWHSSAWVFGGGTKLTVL
VH: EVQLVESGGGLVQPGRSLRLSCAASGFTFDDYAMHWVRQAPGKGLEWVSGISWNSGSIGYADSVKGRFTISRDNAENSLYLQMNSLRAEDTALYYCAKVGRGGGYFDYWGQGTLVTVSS

Each variant is given by its three heavy chain CDRs, as the data file delimits them; those of the parent are GFTFDDYAMH, GISWNSGSIGYADSVK, VGRGGGYFDY.
Values are log10 of the apparent Kd in nM; lower means stronger binding.
A mean of the replicates is given; it leaves out those without a signal.
A pair that was not seen in that replicate is written "n.d."; this usually means weak binding, but a binder can also be missed.

CDR-H1	CDR-H2	CDR-H3	log10 Kd, replicates	mean, log10 nM	empty controls
GFTFWDYAMH	GLSWNSGRIGYADSVK	VGRGGGYFDY	n.d. 6.13 n.d.	6.13	3 of 9 (4.12)
GFTDDDYAMH	GISWNSGLIGYADDVK	VGRGGGYFDY	n.d. n.d. n.d.	n.d.	3 of 9 (3.41)
GFTFDDYAMG	GISWNSGSIGYADSVV	VGRGGHYFDY	n.d. n.d. n.d.	n.d.	2 of 9 (4.69)
LFTFDDYAMC	GISWNSGSIGLADSVK	VGRGGGYFDY	n.d. n.d. n.d.	n.d.	0 of 9
GFTFDDYHMH	GISWHSGSIGYADSVK	VGRGYGYFDY	n.d. 3.90 n.d.	3.90	0 of 9
GFTFDDYAMH	GIYWNSGSLGYADYVK	VGRGGGYFDY	5.51 4.26 4.13	4.63	1 of 9 (4.19)
GFTRDDYAMH	GISWNSGSIGYADSVK	VGRGGGYFNC	4.21 4.61 4.66	4.49	3 of 9 (4.35)
GFTFDDYAMH	GISWNSGMIGYADSVK	MGRGGGHFDY	3.67 n.d. n.d.	3.67	0 of 9
GFTFDDYAMH	GISWNSGSIGYQDSVK	MGRGGGRFDY	n.d. n.d. n.d.	n.d.	0 of 9
GFTFDDYAMH	GISWNSGSIGYADLVA	VGRGGGYFDY	3.58 n.d. n.d.	3.58	3 of 9 (4.44)
GFTDDDYAMH	GISWLSGSIGYADSVK	VGRGGGYFVY	5.78 4.71 n.d.	5.24	5 of 9 (4.48)
GFTFDDYAMP	GISWNYGSIGGADSVK	VGRGGGYFDY	n.d. 4.95 n.d.	4.95	3 of 9 (4.83)
GFTFDDYAMH	GQSWNSGSIGYADSVK	SGRGGGYFDL	5.20 n.d. n.d.	5.20	2 of 9 (3.83)
GFTFDDYAMH	GISWNSGSYGGADSVK	VGRRGGYFDY	n.d. n.d. n.d.	n.d.	1 of 9 (3.59)
GEHFDDYAMH	GISWNSGSIGYADRVK	VGRGGGYFDY	3.55 3.04 3.59	3.39	3 of 9 (5.19)
GATFNDYAMH	GISWNSGSIGYADSVK	VGRGGGYFDT	n.d. n.d. n.d.	n.d.	1 of 9 (4.21)
GFTFDDYAMH	GLSWNSGSIGSAVSVK	VGRGGGYFDY	n.d. n.d. n.d.	n.d.	0 of 9
GFTFDDSAMH	GISWNQGSIGYAFSVK	VGRGGGYFDY	n.d. n.d. n.d.	n.d.	2 of 9 (3.99)
GFTFDDGAMH	GISWNSGWIGYADSVC	VGRGGGYFDY	n.d. n.d. n.d.	n.d.	0 of 9
GFTFDDYAMH	GISWYSASIGYADSVK	VGRGGGYSDY	n.d. 5.58 n.d.	5.58	2 of 9 (3.87)
GFTFDDKAMH	GIFWNSVSIGYADSVK	VGRGGGYFDY	3.09 n.d. n.d.	3.09	0 of 9
GFTFDDYAMA	GISWNSGSCGYADTVK	VGRGGGYFDY	6.70 5.39 5.85	5.98	6 of 9 (5.07)
GQTFDTYEMH	GISWNSGSIGYADSVK	VGRGGGYFDY	n.d. n.d. n.d.	n.d.	1 of 9 (3.70)
GFTFDDYAMQ	CISWNSGSIGYADSVK	VGRGGGYFDY	5.23 n.d. n.d.	5.23	2 of 9 (4.84)
GFTFDDYAMH	GISWNSGSIGYADSSK	VGRNGGFFDY	2.03 2.60 1.94	2.19	3 of 9 (3.72)
GFTFDDYAMH	GISWNSGSIGYAHSVK	VWRGGGSFDY	4.93 n.d. 4.13	4.53	2 of 9 (3.84)
GFTFDDYYMH	GISWNSGSIGYAHSVK	VGRGGGYFDY	4.97 5.64 5.84	5.48	6 of 9 (5.01)
GFTFDAYAMH	NISWNSGSIGYADSVK	VGRAGGYFDY	n.d. n.d. n.d.	n.d.	0 of 9
GFTFDDYAMH	GISWNSGSIGEADSVK	VGRGGDYFDG	n.d. n.d. n.d.	n.d.	1 of 9 (4.31)
GFTFYDYAMH	AISWNSGSIGYADSVK	VGRGGSYFDY	n.d. n.d. n.d.	n.d.	0 of 9
GFTFDDYAMH	GLSWGSGSIGYDDSVK	VGRGGGYFDY	n.d. n.d. n.d.	n.d.	1 of 9 (4.14)
GFTFDDYFMH	GISWNSGCIGYADSVT	VGRGGGYFDY	n.d. n.d. n.d.	n.d.	0 of 9
GFYFDDYAMH	GISWKSHSIGYADSVK	VGRGGGYFDY	n.d. n.d. n.d.	n.d.	0 of 9
GETFDDYAMH	LISWNSGSIGYADSLK	VGRGGGYFDY	5.94 6.30 n.d.	6.12	1 of 9 (4.90)
GFTFDDYAEH	GISWTSGSIGYADSVK	AGRGGGYFDY	n.d. n.d. n.d.	n.d.	1 of 9 (4.33)
GFTFDDYAMH	GISWNSLSIGYDDSVK	NGRGGGYFDY	3.76 4.71 4.73	4.40	4 of 9 (5.05)
RFTFDDYATH	GNSWNSGSIGYADSVK	VGRGGGYFDY	n.d. 4.53 n.d.	4.53	1 of 9 (3.70)
GFTFDDYAMH	GISWWSGSIGYADSRK	VGRGGGEFDY	n.d. n.d. n.d.	n.d.	0 of 9
GFVFDDYAMH	GISWNSGSEGYADSVK	VGRGGGYFDY	0.70 0.63 0.10	0.48	0 of 9
GFTEDDYAMH	GISWNSGSIGYMDSVK	VGRGGGYFDA	4.53 4.72 5.28	4.84	5 of 9 (5.27)
GFFFDDYAMH	GISWNSGSKGYADSVK	VGRGGGYFDY	1.65 1.54 1.24	1.47	4 of 9 (4.74)
GFTFDDYAME	SISWNSGSEGYADSVK	VGRGGGYFDY	n.d. n.d. 4.71	4.71	3 of 9 (5.30)

The first 4 entries again:

CDR-H1	CDR-H2	CDR-H3	log10 Kd, replicates	mean, log10 nM	empty controls
GFTFWDYAMH	GLSWNSGRIGYADSVK	VGRGGGYFDY	n.d. 6.13 n.d.	6.13	3 of 9 (4.12)
GFTDDDYAMH	GISWNSGLIGYADDVK	VGRGGGYFDY	n.d. n.d. n.d.	n.d.	3 of 9 (3.41)
GFTFDDYAMG	GISWNSGSIGYADSVV	VGRGGHYFDY	n.d. n.d. n.d.	n.d.	2 of 9 (4.69)
LFTFDDYAMC	GISWNSGSIGLADSVK	VGRGGGYFDY	n.d. n.d. n.d.	n.d.	0 of 9

In this assay the parent's reference entry averaged 1.86; its copy inside this library read 0.88.
Three control strains display no target. For library AAYL51, 21% of the pairings with them gave a signal, with a median of 4.54 and one signal in twenty below 3.26, so weak values seen in few replicates may be background. For each scFv, signals with the empty controls are counted beside the result, with their mean in brackets.